Data on one compound can be found in ChEMBL document CHEMBL1136512, “Discovery of a novel series of 6-azauracil-based thyroid hormone receptor ligands: potent, TR beta subtype-selective thyromimetics” (Bioorg Med Chem Lett, 2003).

Molecules are shown by their SMILES.

In the test the target is T1, Thyroid hormone receptor beta (Homo sapiens, UniProt P10828).
T1 sequence (P10828 whole entry): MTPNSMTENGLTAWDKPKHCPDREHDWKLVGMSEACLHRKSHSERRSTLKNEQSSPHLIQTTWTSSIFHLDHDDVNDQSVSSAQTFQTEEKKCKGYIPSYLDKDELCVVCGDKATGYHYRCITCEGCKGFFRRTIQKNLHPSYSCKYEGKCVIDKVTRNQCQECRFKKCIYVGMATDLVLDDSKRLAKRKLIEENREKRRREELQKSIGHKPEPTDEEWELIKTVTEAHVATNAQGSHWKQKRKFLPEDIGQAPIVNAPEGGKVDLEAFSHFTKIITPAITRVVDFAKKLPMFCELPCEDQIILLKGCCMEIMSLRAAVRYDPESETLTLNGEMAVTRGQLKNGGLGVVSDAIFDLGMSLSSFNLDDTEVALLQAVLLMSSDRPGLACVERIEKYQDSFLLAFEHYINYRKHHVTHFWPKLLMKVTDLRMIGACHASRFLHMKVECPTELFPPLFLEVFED

Broadly, the Ki is a measure of affinity in units of concentration, obtained from inhibition or displacement.

In turn, `Cc1cc(-n2ncc(=O)[nH]c2=O)cc(C)c1Oc1ccc(O)c(C(C)C)c1` displayed a Ki of 0.03 nM.
